{"source": "ChEMBL document CHEMBL1149679", "about": "“Discovery of selective imidazole-based inhibitors of mammalian 15-lipoxygenase: highly potent against human enzyme within a cellular environment” (Bioorg Med Chem Lett, 2007)", "key": {"[1]": {"biological_target": "T1, Polyunsaturated fatty acid lipoxygenase ALOX15 (Oryctolagus cuniculus, UniProt P12530)", "T1 sequence (P12530 whole entry)": "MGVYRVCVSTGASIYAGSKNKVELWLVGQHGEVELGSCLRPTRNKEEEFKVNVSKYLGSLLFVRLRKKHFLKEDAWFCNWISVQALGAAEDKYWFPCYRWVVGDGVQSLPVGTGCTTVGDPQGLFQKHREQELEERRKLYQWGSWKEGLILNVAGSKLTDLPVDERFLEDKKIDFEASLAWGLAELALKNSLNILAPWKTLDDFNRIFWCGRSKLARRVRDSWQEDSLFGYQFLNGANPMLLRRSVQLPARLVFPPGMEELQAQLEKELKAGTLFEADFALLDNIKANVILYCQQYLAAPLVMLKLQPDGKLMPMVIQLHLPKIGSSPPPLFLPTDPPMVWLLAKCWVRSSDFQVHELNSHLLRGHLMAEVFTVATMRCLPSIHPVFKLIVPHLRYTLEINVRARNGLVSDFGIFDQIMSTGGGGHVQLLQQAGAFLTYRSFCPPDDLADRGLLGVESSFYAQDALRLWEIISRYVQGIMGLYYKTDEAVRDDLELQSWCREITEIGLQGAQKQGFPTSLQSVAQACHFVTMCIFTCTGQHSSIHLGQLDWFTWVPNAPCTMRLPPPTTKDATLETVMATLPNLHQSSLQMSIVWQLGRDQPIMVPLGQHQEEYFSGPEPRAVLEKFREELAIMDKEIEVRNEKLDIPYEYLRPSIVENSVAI", "test": "Inhibition of rabbit 15-lipoxygenase in presence of linoleic acid"}, "[2]": {"biological_target": "T1, Polyunsaturated fatty acid lipoxygenase ALOX15", "test": "Inhibition of rabbit 15-lipoxygenase in presence of arachidonic acid"}}}
{"compound": "CCN([C@@H]1CCN(C(C)c2ccc(F)cc2)C1)S(=O)(=O)NCCc1nc(-c2cccs2)[nH]c1-c1ccc(OC)cc1", "note": "(some centres not stated)", "values": [{"measurement": "IC50", "setting": "[1]", "result": 3, "unit": "nM"}, {"measurement": "IC50", "setting": "[2]", "result": 75, "unit": "nM"}]}
